Protein sequences, listed by entry. Tags and fused reporters are not part of them. Lines headed by an entry give the natural chain unless they say otherwise; changes in a name come on top.
UniProt O60895: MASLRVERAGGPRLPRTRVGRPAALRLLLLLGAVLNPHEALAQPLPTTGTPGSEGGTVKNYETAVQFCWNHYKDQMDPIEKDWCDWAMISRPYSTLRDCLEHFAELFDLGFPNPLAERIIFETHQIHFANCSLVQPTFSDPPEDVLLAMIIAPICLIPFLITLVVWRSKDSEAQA
UniProt O60894: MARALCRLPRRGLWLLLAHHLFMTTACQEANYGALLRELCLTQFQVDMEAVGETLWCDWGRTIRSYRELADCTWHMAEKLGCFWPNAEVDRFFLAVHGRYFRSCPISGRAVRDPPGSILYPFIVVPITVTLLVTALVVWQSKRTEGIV
UniProt Q16602: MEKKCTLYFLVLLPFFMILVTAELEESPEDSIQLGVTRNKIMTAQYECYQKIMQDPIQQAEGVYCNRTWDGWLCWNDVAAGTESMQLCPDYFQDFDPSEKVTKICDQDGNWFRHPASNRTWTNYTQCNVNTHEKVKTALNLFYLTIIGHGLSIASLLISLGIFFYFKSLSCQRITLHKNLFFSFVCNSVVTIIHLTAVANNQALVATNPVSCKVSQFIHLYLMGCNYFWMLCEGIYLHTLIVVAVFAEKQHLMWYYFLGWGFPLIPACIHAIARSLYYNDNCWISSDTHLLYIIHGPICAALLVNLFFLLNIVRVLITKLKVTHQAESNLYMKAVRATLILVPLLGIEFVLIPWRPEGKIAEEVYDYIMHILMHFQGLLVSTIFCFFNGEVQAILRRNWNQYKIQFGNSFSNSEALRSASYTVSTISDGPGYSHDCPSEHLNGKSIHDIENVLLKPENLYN

In ChEMBL document CHEMBL5523739, “NN1213 - A Potent, Long-Acting, and Selective Analog of Human Amylin” (J Med Chem, 2024):

Assays:
Calcitonin receptor [1] = biological target: T1, Calcitonin receptor (Homo sapiens, UniProt P30988); experiment: Agonist activity at human CTR expressed in Baby hamster kidney cells incubated for 3 hrs followed by medium replacement without compound measured after 30 mins by luciferase reporter assay; assay type: functional, cell-based, Baby hamster kidney cell
T1 sequence (P30988 whole entry): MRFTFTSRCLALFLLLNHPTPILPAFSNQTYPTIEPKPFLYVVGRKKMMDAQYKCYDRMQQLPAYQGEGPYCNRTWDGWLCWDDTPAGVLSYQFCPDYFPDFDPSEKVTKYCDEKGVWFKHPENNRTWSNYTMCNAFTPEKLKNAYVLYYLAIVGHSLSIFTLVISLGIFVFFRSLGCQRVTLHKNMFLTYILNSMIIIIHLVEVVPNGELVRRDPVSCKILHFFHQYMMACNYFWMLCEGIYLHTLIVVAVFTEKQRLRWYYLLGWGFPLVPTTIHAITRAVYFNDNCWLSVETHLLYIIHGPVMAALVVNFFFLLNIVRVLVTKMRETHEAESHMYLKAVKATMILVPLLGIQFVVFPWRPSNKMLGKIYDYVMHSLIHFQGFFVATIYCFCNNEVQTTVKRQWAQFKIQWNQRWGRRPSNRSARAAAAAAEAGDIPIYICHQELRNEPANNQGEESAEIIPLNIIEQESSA

Calcitonin receptor [2] = biological target: T2, Calcitonin receptor (Rattus norvegicus, UniProt P32214); experiment: Agonist activity at rat CTR expressed in Baby hamster kidney cells incubated for 3 hrs by cAMP assay; assay type: functional, cell-based, Baby hamster kidney cell
T2 sequence (P32214 whole entry): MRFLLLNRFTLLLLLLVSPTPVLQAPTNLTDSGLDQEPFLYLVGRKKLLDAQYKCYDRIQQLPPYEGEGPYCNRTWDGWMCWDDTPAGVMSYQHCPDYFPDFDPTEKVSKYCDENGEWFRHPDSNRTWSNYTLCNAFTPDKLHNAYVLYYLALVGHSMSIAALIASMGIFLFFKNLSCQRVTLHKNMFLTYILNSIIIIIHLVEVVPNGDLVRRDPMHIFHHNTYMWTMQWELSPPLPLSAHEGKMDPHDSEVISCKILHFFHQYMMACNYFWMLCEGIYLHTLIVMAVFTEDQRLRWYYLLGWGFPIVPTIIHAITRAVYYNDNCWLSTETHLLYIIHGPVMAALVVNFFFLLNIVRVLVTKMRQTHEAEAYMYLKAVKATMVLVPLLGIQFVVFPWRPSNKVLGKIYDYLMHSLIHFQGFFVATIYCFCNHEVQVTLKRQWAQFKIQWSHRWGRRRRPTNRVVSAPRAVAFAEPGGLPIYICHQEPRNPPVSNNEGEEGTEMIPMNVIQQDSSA

Calcitonin receptor [3] = biological target: T1, Calcitonin receptor; experiment: Agonist activity at human CTR transduced in human HeLa cells by cAMP assay; assay type: functional, cell-based
[4] = biological target: T3, Amylin receptor AMY3; CALCR/RAMP3 (Rattus norvegicus, UniProt P32214+Q9JJ73); experiment: Agonist activity at rat AMY3R complex of CTR/RAMP3 expressed in Baby hamster kidney cells incubated for 3 hrs by cAMP assay; assay type: functional, cell-based, Baby hamster kidney cell
T3 sequence (P32214 whole entry): T2 sequence (P32214 whole entry)
T3 sequence (Q9JJ73 whole entry): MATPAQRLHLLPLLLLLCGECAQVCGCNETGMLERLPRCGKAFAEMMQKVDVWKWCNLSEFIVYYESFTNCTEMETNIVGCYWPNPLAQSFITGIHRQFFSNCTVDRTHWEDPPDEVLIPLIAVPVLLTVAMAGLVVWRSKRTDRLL

[5] = biological target: Amylin receptor AMY2; CALCR/RAMP2 (Homo sapiens, UniProt O60895+P30988); experiment: Agonist activity at human AMY2R complex of CTR/RAMP2 transduced in human HeLa cells by cAMP assay; assay type: functional, cell-based
Calcitonin receptor [6] = biological target: T2, Calcitonin receptor; experiment: Displacement of 125I-Calcitonin from rat CTR expressed in Baby hamster kidney cell membrane incubated for 120 mins by SPA method; assay type: cell membranes
[7] = biological target: Calcitonin-gene-related peptide receptor, CALCRL/RAMP1 (Homo sapiens, UniProt O60894+Q16602); experiment: Agonist activity at human CGRPR complex of CRLR/RAMP1 transduced in human HeLa cells by cAMP assay; assay type: functional, cell-based
Calcitonin receptor [8] = biological target: T1, Calcitonin receptor; experiment: Displacement of 125I-Calcitonin from human CTR expressed in Baby hamster kidney cell membrane incubated for 120 mins by SPA method; assay type: cell membranes
[9] = biological target: Amylin receptor AMY1, CALCR/RAMP1 (Homo sapiens, UniProt O60894+P30988); experiment: Agonist activity at human AMY1R complex of CTR/RAMP1 transduced in human HeLa cells by cAMP assay; assay type: functional, cell-based
[10] = biological target: T4, Amylin receptor AMY3; CALCR/RAMP3 (Homo sapiens, UniProt O60896+P30988); experiment: Agonist activity at human AMY3R complex of CTR/RAMP3 transduced in human HeLa cells by cAMP assay; assay type: functional, cell-based
T4 sequence (P30988 whole entry): T1 sequence (P30988 whole entry)
T4 sequence (O60896 whole entry): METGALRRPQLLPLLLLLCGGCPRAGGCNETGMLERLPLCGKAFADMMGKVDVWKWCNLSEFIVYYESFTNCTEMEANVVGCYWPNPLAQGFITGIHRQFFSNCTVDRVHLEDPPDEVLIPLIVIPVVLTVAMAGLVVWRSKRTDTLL

[11] = biological target: T3, Amylin receptor AMY3; CALCR/RAMP3; experiment: Displacement of 125I-rat amylin from rat AMY3R complex of CTR/RAMP3 expressed in Baby hamster kidney cell membrane incubated for 120 mins by SPA method; assay type: cell membranes
[12] = biological target: T4, Amylin receptor AMY3; CALCR/RAMP3; experiment: Displacement of 125I-rat amylin from human AMY3R complex of CTR/RAMP3 expressed in Baby hamster kidney cell membrane incubated for 120 mins by SPA method; assay type: cell membranes
[13] = biological target: Adrenomedullin receptor, AM2; CALCRL/RAMP3 (Homo sapiens, UniProt O60896+Q16602); experiment: Agonist activity at human AM2R complex of CRLR/RAMP3 transduced in human HeLa cells by cAMP assay; assay type: functional, cell-based

Question: What does the source list for `CC[C@H](C)[C@H](NC(=O)[C@@H]1CCCN1C(=O)CNC(=O)[C@H](Cc1ccccc1)NC(=O)[C@H](CC(N)=O)NC(=O)[C@H](CC(N)=O)NC(=O)[C@H](CO)NC(=O)[C@H](CO)NC(=O)[C@H](Cc1c[nH]cn1)NC(=O)[C@@H](NC(=O)[C@H](CC(C)C)NC(=O)[C@H](Cc1ccccc1)NC(=O)[C@H](CC(N)=O)NC(=O)[C@H](C)NC(=O)[C@H](CC(C)C)NC(=O)[C@H](CCCNC(=N)N)NC(=O)[C@H](CCC(N)=O)NC(=O)[C@@H](NC(=O)[C@H](C)NC(=O)[C@@H]1CSSC[C@H](NC(=O)[C@@H](N)CCCCN)C(=O)N[C@@H](CC(N)=O)C(=O)N[C@@H]([C@@H](C)O)C(=O)N[C@@H](C)C(=O)N[C@@H]([C@@H](C)O)C(=O)N1)[C@@H](C)O)C(C)C)C(=O)N[C@@H](CC(C)C)C(=O)N1CCC[C@H]1C(=O)N1CCC[C@H]1C(=O)N[C@H](C(=O)N[C@@H](CC(N)=O)C(=O)N[C@H](C(=O)NCC(=O)N[C@@H](CO)C(=O)N[C@@H](CC(N)=O)C(=O)N[C@H](C(=O)N[C@@H](Cc1ccc(O)cc1)C(N)=O)[C@@H](C)O)C(C)C)[C@@H](C)O` [PRAMLINTIDE]?
Answer: EC50 (Calcitonin receptor [1]): 0.07 nM; EC50 (Calcitonin receptor [2]): 1.82 nM; EC50 (Calcitonin receptor [3]): 0.331 nM; EC50 [4]: 0.004 nM; EC50 [5]: 0.0646 nM; IC50 (Calcitonin receptor [6]): 5.83 nM; EC50 [7]: 23.4 nM; IC50 (Calcitonin receptor [8]): 1.49 nM; EC50 [9]: 0.0219 nM; EC50 [10]: 0.0295 nM; IC50 [11]: 0.122 nM; IC50 [12]: 0.114 nM; EC50 [13]: 148 nM
